Source: PubChem
A selection: hits, their analogues and other compounds. The true share with any hit is near 1.5%.
Cneo AK release = Cryptococcus neoformans cell lysis inducers, primary screen, AK release luminescence, single concentration | C. neoformans lysis, adenylate kinase release luminescence, 4 h; normalised: neutral wells 0, clomiphene wells 100 | lysis activity, % at 15 µM | 0.2% of 360,000 active | AID 651654, 2012;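 active means mean lysis activity across replicates of at least 80%, whatever share of replicates individually reach that level; inactive means mean lysis activity below 80%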
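Material – log-phase Cryptococcus neoformans yeast cells · Input – 5 × 10^6 yeast cells/mL · Medium – fresh YPD growth medium · Doses – single compound concentration per well · Timing – static 4 h at 37 °C with compound, 1 h detection · Detection – adenylate kinase release luminescence · Read-out – signal increase indicating cell lysis · Control set – Clomiphene as positive lysis control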
PGC1a acetyl inh = inhibitors of PGC1a acetylation signal, primary screen, cell-based, U2OS, AlphaScreen, inhibitor mode. AlphaScreen anti-acetyl-lysine; with virally co-expressed GCN5 acetyltransferase. inhibition, % at 15.6 µM. 0.17% of 350,000 active;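 active means every replicate shows inhibition of at least 40%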;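 further: 0% = neutral control wells and 100% = positive control wells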
UUG fidelity = yeast start codon fidelity modulation | S. cerevisiae UUG-firefly luciferase reporter, luminescence/redox ratio | activity score, % at 18.7 µM | 350,000 tested, 0.13% active;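 active = replicate mean at a twofold rise or more, about +100% in these data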;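 also: firefly luciferase made from a UUG start codon reports start codon fidelity; reporter light over untreated wells divided by growth signal over untreated wells; some hits fall short of that in this replicate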
Env fusion inh = inhibitors of HIV-1 Env-driven cell-cell fusion, primary screen, HeLa-JRFL effector, CEM21 target cells, luciferase | inhibition, % at 12.3 µM | 1.1% of 360,000 active;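 active means mean replicate inhibition score of at least 50 and every replicate individually at or above 50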;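 further: 0% = plate neutral controls and 100% = maraviroc near 300 nM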
miR122 inh = miR-122 Renilla sensor signal increase in Huh7, primary screen, miR-122 inhibitor project, cell-based, single point, plate reader. Huh7 miR-122 Renilla luciferase sensor, 48 h; neutral wells = 0, positive control = 100. 0.3% of 340,000 active. AID 602342, 2012. activation (reporter increase), % at 12.5 µM;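 active means mean replicate activation score at least 90 and every replicate individually at or above 90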;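 further: higher luciferase means less miR-122 activity so hits act as miR-122 inhibitors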
FN deposit inh = inhibitors of fibronectin matrix deposition, primary screen, AH1F cells, Alexa488-fibronectin fluorescence, plate reader | AID 743247, 2014 | 0.086% of 350,000 active | AH1F fibroblasts, overnight | inhibition, % at 12.6 µM;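 active means mean inhibition across replicates of 30% or more, regardless of how many single replicates reach that level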;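 further: positive control wells lacked labelled fibronectin entirely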
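material = AH1F fibroblast monolayer depositing Alexa488-labelled fibronectin into matrix | amount = 10000 AH1F cells/well | buffer or medium = DMEM plus 2% serum, read in PBS | incubation = 1 h cell adhesion before compound, then overnight fibronectin incubation | detection = fluorescence at 485 nm excitation, 525 nm emission | evaluation = percent inhibition as loss of matrix-bound fibronectin fluorescence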
An asterisk follows results filed as active; · = not tested or not shown; [ ] = remark or other dose.

structure,Cneo AK release,PGC1a acetyl inh,UUG fidelity,Env fusion inh,miR122 inh,FN deposit inh
Cc1cc(C)nc(NC(=O)c2ccc(Br)cc2)n1,-4.3,·,-13.2,36.8,·,-6.0
CC(NC1CCCC1)C(=O)Nc1ccccc1-c1ccccc1 (stereo not given),-0.5,-12.4,-12.0,-19.5,-1.0,6.1
Cc1ccccc1S(=O)(=O)N1CC[C@@H]2[C@@H](CO)N(C)c3ccc(-c4ccccc4)cc3[C@@H]21,-3.9,-6.1,-9.1,·,101.8*[16.7 µM],-14.4
COc1cccc(-c2ccc3c(c2)[C@@H]2[C@@H](CCN2C(=O)NC2CCCC2)[C@@H](CO)N3C)c1,51.0,-11.6,-6.5,·,-0.8[16.7 µM],1.6
COc1ccc(-c2ccc3c(c2)[C@@H]2[C@@H](CCN2C(=O)NC2CCCC2)[C@H](CO)N3C)cc1,·,10.1,·,58.7*[16.7 µM],·,0.4
COc1ccc(S(=O)(=O)N2CC[C@@H]3[C@@H](CO)N(C)c4ccc(-c5ccc(F)cc5)cc4[C@@H]32)cc1,0.6,4.4,6.1,·,195.6*[16.7 µM],-44.6
CCN(CC)c1nc(-c2nn[nH]n2)nc(N(CC)CC)n1,1.2,-0.9,-27.2,-28.0,-2.4,-1.9
CC1(C)C(=O)NCCN1C(=O)CCCC(=O)O,·,2.6,·,6.4,·,0.0
Cc1cc(C)cc(NS(=O)(=O)c2ccc3c(c2)C(C)(C)C(=O)N3C)c1,3.0,·,7.2,6.9,107.3*,16.0
Cc1ccccc1CNS(=O)(=O)c1ccc2c(c1)C(C)(C)C(=O)N2C,·,-3.6,·,-9.8,44.1,9.4
CC(C)C(NS(=O)(=O)c1ccc2c(c1)C(C)(C)C(=O)N2C)C(=O)NCc1ccccc1Cl (stereo not given),0.9,-4.0,-3.9,62.4*,-5.8,-4.5
O=S(=O)(c1ccccc1)c1nc(-c2ccco2)oc1NCCN1CCOCC1,-2.8,0.5,-8.1,·,1.2,·
Cc1ccccc1-c1nc(S(=O)(=O)c2ccccc2)c(NCCN2CCOCC2)o1,-17.1,4.1,-7.6,59.1*,11.8,-0.3
COc1ccc(CNC(=O)N(C)C[C@H]2OCc3ccccc3-c3c(n(C)c4ccccc34)C(=O)N([C@@H](C)CO)C[C@@H]2C)cc1,-0.4,2.6,·,58.0*[16.7 µM],·,·
CC(C)[C@H](C)NC(=O)N(C)C[C@H]1OCc2ccccc2-c2ccccc2C(=O)N([C@@H](C)CO)C[C@@H]1C,-3.5,8.2,·,55.8*[16.7 µM],·,-5.1
C[C@H]1CN([C@@H](C)CO)C(=O)c2ccccc2-c2ccccc2CO[C@@H]1CN(C)C(=O)Nc1cccc(C(F)(F)F)c1,45.1,16.7,·,58.7*[16.7 µM],·,1.5
CC(C)[C@@H](C)NC(=O)N(C)C[C@@H]1OCc2ccccc2-c2ccccc2C(=O)N([C@H](C)CO)C[C@H]1C,-3.9,-40.7,·,-1.0[16.7 µM],·,-11.7
COc1ccc(CNC(=O)N(C)C[C@H]2OCc3ccccc3-c3ccccc3C(=O)N([C@H](C)CO)C[C@@H]2C)cc1,0.7,1.5,·,71.8*[16.7 µM],·,-4.7
COc1ccc(CNC(=O)N(C)C[C@H]2OCc3ccccc3-c3c(n(C)c4ccccc34)C(=O)N([C@H](C)CO)C[C@@H]2C)cc1,-1.1,-9.3,·,67.6*[16.7 µM],·,-18.7
COc1cc(NS(=O)(=O)c2cccc3nsnc23)cc(OC)c1,-0.5,29.4,29.4,·,58.3,·
O=S(=O)(Nc1ccc(Cl)cc1)c1cccc2nsnc12,-6.3,5.9,7.8,-3.6,120.5*,-1.1
O=S(=O)(Nc1cccc(F)c1)c1cccc2nsnc12,0.7,8.4,-2.6,4.2,3.6,-3.5
Cc1ccc(NS(=O)(=O)c2cccc3nsnc23)cc1C,0.2,-11.3,-15.1,-62.3,114.1*,-1.3
CC(Oc1ccc(Cl)cc1)c1ccnn1S(=O)(=O)c1ccc(Cl)cc1 (stereo not given),-0.2,·,-16.4,29.4,110.8*,0.5
CC(C)C#Cc1ccc2c(c1)O[C@@H](CN(C)C(=O)C1CCCCC1)[C@H](C)CN([C@@H](C)CO)S2(=O)=O,·,1.5,7.1,35.8[16.7 µM],18.7[16.7 µM],·

Filtered by structure, those above with a Cl atom
structure,Cneo AK release,PGC1a acetyl inh,UUG fidelity,Env fusion inh,miR122 inh,FN deposit inh
CC(C)C(NS(=O)(=O)c1ccc2c(c1)C(C)(C)C(=O)N2C)C(=O)NCc1ccccc1Cl (stereo not given),0.9,-4.0,-3.9,62.4*,-5.8,-4.5
O=S(=O)(Nc1ccc(Cl)cc1)c1cccc2nsnc12,-6.3,5.9,7.8,-3.6,120.5*,-1.1
CC(Oc1ccc(Cl)cc1)c1ccnn1S(=O)(=O)c1ccc(Cl)cc1 (stereo not given),-0.2,·,-16.4,29.4,110.8*,0.5
